# Data as given in patent publication US20200000755A1, “TREATMENT OF INFLAMMATORY DISORDERS IN NON-HUMAN MAMMALS” (THE REGENTS OF THE UNIVERSITY OF CALIFORNIA, priority 2012, published 2020).
# Test system: horse with pain due to laminitis
smiles,measurement,setting,value
O=C(Nc1ccc(OC(F)(F)F)cc1)N[C@H]1CC[C@H](Oc2ccc(C(=O)O)cc2)CC1 [compound 1728],status at 30 days follow-up,30 days follow-up,normotensive and had no evidence of lameness
same,Pain scores following administration,"laminitic horse, 0.1 mg/kg once daily IV",decreased sharply and remarkably
same,hypertension (blood pressure) as treatment progressed,"laminitic horse, days 8 to 12",improved gradually towards normal physiologic values
